For one assay, the system named is NFκB. Kind of assay: NFκB reporter assay (SEAP) in THP1-XBlue-MD2-CD14 cells after LPS. The assay is classed as cell-based. Conditions: LPS 5 ng/ml. The procedure:
The NFκB inducible Secreted Embryonic Alkaline Phosphatase (SEAP) was measured in the supernatant and read for absorbance.
(§1) Various SERPIN peptide derivatives were screened in vitro for their ability to reduce TNFα and NFκB secretion via LRP-1 activation. The NFκB reporter cells (THP1-XBlue-MD2-CD14 cells) were treated with each peptide derivative at various concentrations, up to 100 μg/ml before being insulted with LPS (5 ng/ml) and incubated overnight. The NFκB inducible Secreted Embryonic Alkaline Phosphatase (SEAP) was measured in the supernatant and read for absorbance. IMG Microglial cells were treated with each peptide derivative at various concentrations, up to 100 μg/ml before LPS (100 ng/ml) stimulation for 24 hours. An ELISA was used to measure TNFα in the supernatant ([…]).
On the technique in general: In a reporter assay the amount or activity of a reporter protein is the signal.

The subject of the next assay is TNFα. Kind of assay: TNFα secretion in IMG microglial cells after LPS (ELISA). Conditions: LPS 100 ng/ml, 24 hours. The assay is classed as cell-based. As to the method: In the NFκB reporter cells, the NFκB inducible Secreted Embryonic Alkaline Phosphatase (SEAP) was measured in the supernatant. TNFα secretion in the supernatant was measured via ELISA.
as §1

The next assay has as its system IL-6. Kind of assay: IL-6 secretion in IMG microglial cells after LPS (ELISA). The assay is classed as cell-based. Conditions: LPS 100 ng/ml, 24 hours. On the technique in general: In an ELISA, binding on a coated surface is turned into a signal by an enzyme label.
For assay [1], the system named is LPS induced neuroinflammation. As to the kind of experiment: LPS induced neuroinflammatory model. The assay is classed as in vivo, C57BL/6 mice.
The next assay deals with LC3II/I ratio. As to the kind of experiment: Autophagy marker LC3II/I ratio in IMG microglial cells (western blot). The assay is classed as cell-based. Conditions: 100 μg/ml before LPS 100 ng/ml, 24 hours. Background: Immunoblotting shows a protein as a band on a membrane.
Assay [2] concerns LRP1. Kind of assay: LRP1 protein expression in IMG microglial cells (western blot). The assay is classed as cell-based. Conditions: 100 μg/ml, LPS activated microglial cells.
In assay [3] the test system is LRP1. As to the kind of experiment: OVA mouse model of Eosinophilic Esophagitis, LRP1 in esophageal lysate (western blot). The assay is classed as in vivo. Conditions: OVA sensitized and challenged mice.
Another assay has as its system TSLP. As to the kind of experiment: polyI:C-induced TSLP production by SPINK7 knockout EPC2 cells (ELISA). The assay is classed as cell-based, Human. Conditions: 200 μg/ml, Poly I:C 5 μg/ml, 8 hours, SPINK7 KO EPC2 cells.
Assay [4] has as its system OVA induced allergic asthma. Kind of assay: OVA induced allergic asthma mouse model, lung homogenate. The assay is classed as in vivo, mice. Conditions: compared to vehicle treated animals, p<0.005. The text has this:
Infiltration of immune cells into the lung likely account for the increase in total protein levels in the lung.

In brackets after ≈: the same amount, converted by molar mass.

As for `CCCC[C@H](NC(=O)[C@H](CC(C)C)NC(=O)[C@H](Cc1ccccc1)NC(=O)[C@@H](NC(=O)[C@H](Cc1ccccc1)NC(=O)[C@@H]1CCCN1C(=O)[C@H](CCCCN)NC(=O)[C@H](CC(N)=O)NC(=O)[C@H](Cc1ccccc1)NC(=O)[C@H](CCCCN)NC(=O)[C@@H](NC(C)=O)C(C)C)C(C)C)C(=O)N[C@H](C(=O)N[C@@H](CCC(=O)O)C(=O)N[C@@H](CCC(N)=O)C(=O)N[C@@H](CC(N)=O)C(=O)N[C@H](C(=O)N[C@@H](CCCCN)C(N)=O)[C@@H](C)O)[C@@H](C)CC` [SP163M, Ac-VKFNKPFVFL[Nle]IEQNTK-NH2], the “EC50 NFκB” value in the assay with NFκB is 41.51 µg/mL (≈ 19.7 µM). In addition, the “EC50 TNFα” value with TNFα amounted to 125.9 µg/mL (≈ 59.8 µM). Also, the “EC50 IL-6” value with IL-6 was determined as 134.5 µg/mL (≈ 63.8 µM). Also, in [1] (100 μg s.c. daily, Day 5, LEGENDplex panel), the “IL-6 level in brain homogenate” value is “moderate levels”. The weight loss result in assay [1] (100 μg subcutaneously daily 1 hour after LPS 1 mg/kg i.p., 4 days) was “not seen”. For the same molecule, the “autophagic flux (LC3II/I ratio)” value in the assay with LC3II/I ratio is on record as “restored autophagic functioning to near baseline levels”. In the assay with LRP1 [2], the LRP1 protein expression entry is recorded as “increased LRP1 protein expression”. Also, the “LRP1 protein expression in esophageal lysate” value in the assay on LRP1 [3] was “increased levels of LRP1”. Moreover, the “TSLP production in supernatant” value in the assay with TSLP is “inhibited polyI:C-induced TSLP production”. For the same molecule, the “total protein levels in the lung” value in [4] is recorded as “significantly decreased”.
